# Reference: EP0989125B1, “Pesticidal furylmethyl cyclopropanecarboxylates” (Sumitomo Chemical Company, Limited, priority 1998, dated 2000)
# System: houseflies (Musca domestica)
smiles,measurement,setting,value
"Cc1ccc(COC(=O)[C@@H]2[C@H](/C=C(\Cl)C(F)(F)F)C2(C)C)o1 (racemic) [present compound (1), 5-methyl-2-furfuryl (1RS,cis)-3-(Z-2-chloro-3,3,3-trifluoroprop-1-enyl)-2,2-dimethylcyclopropanecarboxylate]",Mortality (%),"Present compound (1) 0.5 µg/female + Piperonyl butoxide 1.0 µg/female, after 24 hours",95%
same,Mortality (%),"Present compound (1) 0.5 µg/female, Piperonyl butoxide 0, after 24 hours",30%

# Read-outs that look alike come from different tables or passages of the source.
